# Apparent affinities of Ab-91 variants for a coronavirus HR2 peptide

The measurements come from Engelhart et al. 2022 (doi:10.1038/s41597-022-01779-4) through the FLAb antibody collection.

The target is the same throughout: PDVDLGDISGINAS, from the HR2 region of SARS-CoV-2 spike.

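The parent was found by panning a naive human phage display library on the peptide. Library AAYL51 holds single substitutions and randomly drawn double and triple substitutions in the CDRs. The scFvs were displayed on barcoded MATa yeast, the peptide on MATalpha yeast. Mating (16 h, 30 °C) was followed by selection of diploids and sequencing of their barcodes. Each replicate has its own calibration line, from reference interactions of the BCL2 family. The assay was run in three technical replicates.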

Parent scFv Ab-91: VL joined to VH by three GGGGS repeats. Changes lie in the heavy chain CDRs alone.
VL: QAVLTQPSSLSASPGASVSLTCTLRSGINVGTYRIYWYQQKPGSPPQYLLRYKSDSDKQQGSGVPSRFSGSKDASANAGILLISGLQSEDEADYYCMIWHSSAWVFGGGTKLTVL
VH: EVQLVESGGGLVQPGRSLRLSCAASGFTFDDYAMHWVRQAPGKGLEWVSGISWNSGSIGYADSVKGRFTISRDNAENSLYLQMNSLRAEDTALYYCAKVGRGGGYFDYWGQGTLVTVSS

The whole VH of each variant is written out.
The read-out is the apparent dissociation constant on a log10 scale (nM): the lower, the stronger.
The mean shown is taken over the replicates in which the pair was detected.
An entry "ND" has no value in the source: the pair was not observed among the diploids in that replicate. This suggests poor binding but is not conclusive.
Order: sorted from the lowest average up, undetected variants last.
Background: pairings of library AAYL51 with three empty control strains gave a value in 21% of cases (median 4.54, 5th percentile 3.26). Values in that range, when seen in few replicates, are hard to tell from nonspecific mating.
For reference, the parent read 1.86 as the reference entry and 0.88 as a member of this library.

| log10 Kd (nM) by replicate | mean, log10 nM | VH |
|---|---|---|
| 1.11 0.43 0.34 | 0.63 | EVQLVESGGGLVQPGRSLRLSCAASGFTFDDYAMHWVRQAPGKGLEWVSGISWNSGSIGYADSVKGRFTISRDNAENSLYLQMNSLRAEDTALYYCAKVGRWGGYFDVWGQGTLVTVSS |
| 1.03 1.05 0.88 | 0.98 | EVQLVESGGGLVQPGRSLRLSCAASGFTFHDYAMHWVRQAPGKGLEWVSGIAWNSGSIGTADSVKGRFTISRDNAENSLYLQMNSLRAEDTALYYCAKVGRGGGYFDYWGQGTLVTVSS |
| 2.50 1.06 -0.06 | 1.17 | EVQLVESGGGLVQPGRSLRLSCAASGFTFPDYAMHWVRQAPGKGLEWVSGISWNVGSIGYADSVKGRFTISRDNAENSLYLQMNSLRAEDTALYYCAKVGRWGGYFDYWGQGTLVTVSS |
| 1.55 1.74 1.23 | 1.51 | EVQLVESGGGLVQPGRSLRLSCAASFFDFDDYAMHWVRQAPGKGLEWVSGISWNSGSIGYADSVKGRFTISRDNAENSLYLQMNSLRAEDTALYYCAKVGRGGGYFDYWGQGTLVTVSS |
| 3.26 ND ND | 3.26 | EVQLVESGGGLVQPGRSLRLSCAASGFTFDDYAMNWVRQAPGKGLEWVSGISWNSGSIGYADSVKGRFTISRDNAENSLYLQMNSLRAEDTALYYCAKVERGGGYFDYWGQGTLVTVSS |
| 3.39 ND ND | 3.39 | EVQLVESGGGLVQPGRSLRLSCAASGFTFDDYAMHWVRQAPGKGLEWVSGISWNVGSIGYADSVKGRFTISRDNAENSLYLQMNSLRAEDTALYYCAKVQRGGGYFDEWGQGTLVTVSS |
| 3.78 3.17 ND | 3.47 | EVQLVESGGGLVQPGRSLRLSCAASGFTFDDYAMHWVRQAPGKGLEWVSGISWNKGSMGYADCVKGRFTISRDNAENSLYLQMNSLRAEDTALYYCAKVGRGGGYFDYWGQGTLVTVSS |
| 3.84 ND ND | 3.84 | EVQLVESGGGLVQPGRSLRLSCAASGFTFDDYAMHWVRQAPGKGLEWVSGISWWSGSIGYADSVEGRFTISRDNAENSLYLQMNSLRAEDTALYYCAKVGRGGGQFDYWGQGTLVTVSS |
| 4.20 4.07 ND | 4.14 | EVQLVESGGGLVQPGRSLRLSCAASGFTFDDYAMHWVRQAPGKGLEWVSGISWNSGSIGYADHVWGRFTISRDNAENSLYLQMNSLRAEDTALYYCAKVGRGGGYRDYWGQGTLVTVSS |
| ND 4.20 ND | 4.20 | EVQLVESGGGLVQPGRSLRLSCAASGFTFDDFAMHWVRQAPGKGLEWVSGISWNSGSIGYADSVKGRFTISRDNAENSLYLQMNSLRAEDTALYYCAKVCRGGGYFTYWGQGTLVTVSS |
| ND ND 4.33 | 4.33 | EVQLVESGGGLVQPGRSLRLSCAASGFTFDDVAMHWVRQAPGKGLEWVSGISWNSRSIGYADSVKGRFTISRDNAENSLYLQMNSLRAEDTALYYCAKVGRGQGYFDYWGQGTLVTVSS |
| 3.36 4.43 5.34 | 4.37 | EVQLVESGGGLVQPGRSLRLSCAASGFTFDDYAMHWVRQAPGKGLEWVSGISWNSGSIGYANSAKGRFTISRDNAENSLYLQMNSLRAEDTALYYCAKVGRGKGYFDYWGQGTLVTVSS |
| ND 3.59 5.16 | 4.38 | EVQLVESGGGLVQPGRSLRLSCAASSFTFDDNAMHWVRQAPGKGLEWVSGISWNSGFIGYADSVKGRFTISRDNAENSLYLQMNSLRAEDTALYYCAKVGRGGGYFDYWGQGTLVTVSS |
| 3.06 5.94 4.59 | 4.53 | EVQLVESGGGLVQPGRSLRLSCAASGFTWDDYAAHWVRQAPGKGLEWVSWISWNSGSIGYADSVKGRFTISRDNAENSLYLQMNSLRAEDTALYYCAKVGRGGGYFDYWGQGTLVTVSS |
| 4.77 ND ND | 4.77 | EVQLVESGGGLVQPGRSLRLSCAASGFTFDDYAMHWVRQAPGKGLEWVSGIIWNSGSIGYADSVKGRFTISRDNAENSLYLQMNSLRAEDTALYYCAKVGRGGGYFAYWGQGTLVTVSS |
| 4.40 6.14 4.66 | 5.07 | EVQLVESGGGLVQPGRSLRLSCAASGFTFNDYAHHWVRQAPGKGLEWVSGISWNSGSIGYADSVKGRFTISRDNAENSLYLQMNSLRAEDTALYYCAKVGRGGGYPDYWGQGTLVTVSS |
| ND 7.10 4.25 | 5.68 | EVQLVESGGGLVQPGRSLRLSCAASGCTFFDYAMHWVRQAPGKGLEWVSGISWNSGSIGYADSVKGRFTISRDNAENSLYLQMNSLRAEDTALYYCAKVGRGGGYFYYWGQGTLVTVSS |
| ND ND ND | ND | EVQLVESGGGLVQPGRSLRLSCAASGFTFDDYAMHWVRQAPGKGLEWVSGISWNSGYIGYRDSVKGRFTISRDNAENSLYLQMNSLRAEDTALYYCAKFGRGGGYFDYWGQGTLVTVSS |
| ND ND ND | ND | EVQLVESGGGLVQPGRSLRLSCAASGFTFDIYAMHWVRQAPGKGLEWVSGISWNSGSHGYADSIKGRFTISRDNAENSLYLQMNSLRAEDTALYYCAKVGRGGGYFDYWGQGTLVTVSS |
| ND ND ND | ND | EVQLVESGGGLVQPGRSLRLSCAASGFTFDDDAMHWVRQAPGKGLEWVSGISWNSGSIGYADSVGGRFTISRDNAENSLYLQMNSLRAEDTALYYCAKKGRGGGYFDYWGQGTLVTVSS |
| ND ND ND | ND | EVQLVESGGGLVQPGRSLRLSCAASGFTFDDYAAHWVRQAPGKGLEWVSGISWYSGSIGYADSVKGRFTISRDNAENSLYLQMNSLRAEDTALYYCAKVGRGGGYFLYWGQGTLVTVSS |
| ND ND ND | ND | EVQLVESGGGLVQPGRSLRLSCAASGFTFDDYIMLWVRQAPGKGLEWVSGIQWNSGSIGYADSVKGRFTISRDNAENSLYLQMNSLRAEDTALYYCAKVGRGGGYFDYWGQGTLVTVSS |

The last 3 entries again:

| VH | log10 Kd (nM) by replicate | mean, log10 nM |
|---|---|---|
| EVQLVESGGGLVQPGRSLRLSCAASGFTFDDDAMHWVRQAPGKGLEWVSGISWNSGSIGYADSVGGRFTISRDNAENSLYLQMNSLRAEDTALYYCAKKGRGGGYFDYWGQGTLVTVSS | ND ND ND | ND |
| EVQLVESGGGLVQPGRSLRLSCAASGFTFDDYAAHWVRQAPGKGLEWVSGISWYSGSIGYADSVKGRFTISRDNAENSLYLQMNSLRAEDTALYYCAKVGRGGGYFLYWGQGTLVTVSS | ND ND ND | ND |
| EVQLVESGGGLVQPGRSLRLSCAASGFTFDDYIMLWVRQAPGKGLEWVSGIQWNSGSIGYADSVKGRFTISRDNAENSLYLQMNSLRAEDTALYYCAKVGRGGGYFDYWGQGTLVTVSS | ND ND ND | ND |